Target: Serine/threonine-protein kinase pim-1 (Homo sapiens, UniProt P11309)
Assay: Inhibition of PIM-1 (unknown origin)

By UniProt entry, the sequences of proteins in these tests, tags left out.
UniProt P11309, whole entry: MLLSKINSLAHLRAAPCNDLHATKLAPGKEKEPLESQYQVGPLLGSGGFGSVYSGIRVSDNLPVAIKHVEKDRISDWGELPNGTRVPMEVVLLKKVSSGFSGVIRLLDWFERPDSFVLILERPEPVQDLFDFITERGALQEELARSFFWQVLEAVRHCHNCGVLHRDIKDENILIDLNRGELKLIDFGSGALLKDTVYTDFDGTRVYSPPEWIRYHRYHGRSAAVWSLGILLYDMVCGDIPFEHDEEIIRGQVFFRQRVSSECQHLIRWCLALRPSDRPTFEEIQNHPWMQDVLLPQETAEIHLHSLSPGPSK

IC50: 320 µM
Compound: O=c1c(O)c(-c2ccc(O)c(O)c2)oc2cc(O)c(O)c(O)c12 [QUERCETAGETIN]

Source: ChEMBL document CHEMBL5385896, “Discovery of PIM-1 kinase inhibitors based on the 2,5-disubstituted 1,3,4-oxadiazole scaffold against prostate cancer: Design, synthesis, in vitro and in vivo cytotoxicity investigation” (Eur J Med Chem, 2023)
